These are literature values, as cited in publication PMC3312455.

The data set concerns the target PDGFRβ ECD (Homo sapiens) (UniProt P09619). In words: SPR.

Regarding PDGF-BB (from UniProt P01127), the Kd was 1.6 nM.
